{
  "source": "paper PMC12251305",
  "about": "(Molecules, 2025)",
  "origin": "cited, not measured here",
  "key": {"[1]": {"test_system": "C57BL/6J mice", "conditions": "mouse 48 °C warm water tail withdrawal test; ref [29]; cited from earlier work"}, "[2]": {"test_system": "DOP", "conditions": "read-out: DOP Ki; Figure 1; ref [29]; cited from earlier work"}, "[3]": {"test_system": "MOP", "conditions": "read-out: MOP Ki; Figure 1; ref [29]; cited from earlier work"}, "[4]": {"test_system": "KOP", "conditions": "read-out: KOP Ki; Figure 1; ref [29]; cited from earlier work"}},
  "data": [
    {"compound": "N=C(N)NCCNC(=O)C1(Nc2ccccc2)CCN(Cc2ccccc2)CC1", "note": "[compound 2]", "values": [
      {"measurement": "prevention of NPFF-induced hyperalgesia", "setting": "[1]", "result": "prevents NPFF-induced hyperalgesia"},
      {"measurement": "Ki", "setting": "[2]", "result": 2610, "unit": "nM"},
      {"measurement": "Ki", "setting": "[3]", "result": "> 5000", "unit": "nM"},
      {"measurement": "Ki", "setting": "[4]", "result": 1470, "unit": "nM"}
    ]}
  ]
}
